A short description of this experiment: Selectivity for sigma 1 receptor in guinea pig brain membrane over sigma 2 receptor in rat liver membrane. It counts as cell membranes.

Molecules are shown by their SMILES.

With `OC(CCCN1CCN(c2ncc(F)cn2)CC1)c1ccc(F)cc1` (stereo unspecified) [BMY-14802], the Ratio Ki came out at 1.5.

These data come from ChEMBL document CHEMBL1153857, “1,4-Diazepanes derived from (S)-serine--homopiperazines with improved sigma(1) (sigma) receptor affinity and selectivity” (Eur J Med Chem, 2009).
